Source: PubChem (National Center for Advancing Translational Sciences (NCATS))
Lamin A splicing – modulators of lamin A splicing; HeLa LMNA splicing GFP/RFP minigene ratio, 48 h; Potency, µM (top dose mostly 46.1 µM), inactives show top-dose ratio change, negative = inhibition, actives largely listed as inhibitors; actives 0.01% (n = 200,000); AID 1487; active = well fitted inhibition curve with a large enough effect in the signal ratio, with a control signal flat, not every such curve was filed as active; inconclusive = small, poorly fitted or top-dose-only effect, or effect the other way, or a change in a side signal; the % refers to the signal ratio; note: potency is the fitted concentration of half-maximal effect; % is set by controls: 0 for no effect and ±100 for the full control effect
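S3 HeLa cells stably expressing lamin A-EGFP splicing minigene plus DsRed2, 600 cells/well, 48 h compound exposure at 37C. Laser-scanning cytometry; analysed as GFP (500-530 nm)/RFP (575-640 nm) total intensity ratio; 0.5% DMSO vehicle.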
G9a inh – G9a (human) methyltransferase inhibition | AID 504332 | actives 8.8% (n = 350,000) | Q96KQ7 | G9a H3K9 monomethylation, AlphaScreen, 2 h | Potency, µM (doses to about 102 µM), without a hit: at the highest dose activity, negative = inhibition, usual class: inhibitors; note: potency is the fitted concentration of half-maximal effect; % is set by controls: 0 for no effect and ±100 for the full control effect; nearly all actives have a fitted effect of over 75% in size
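Quantitative HTS format: methyltransferase activity on a biotin-tagged H3K9 peptide is measured by AlphaScreen, using a rabbit anti-monomethyl-H3K9 antibody with streptavidin donor and anti-IgG acceptor beads. Final levels are 20 nM enzyme, 500 nM peptide, 20 uM SAM; 2 h RT.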
Sfp PPTase inh – qHTS Assay for Inhibitors of Bacillus subtilis Sfp phosphopantetheinyl transferase (PPTase); Biochemical Sfp PPTase activity, qHTS; Potency, µM, for inactives: max response, negative = inhibition, actives largely listed as inhibitors; actives 3.5% (n = 310,000); AID 1490, 2009; active = well fitted inhibition curve with a large enough effect; inconclusive = small, poorly fitted or top-dose-only effect, or another doubt; inactive = no such curve, though single readings can be large or run the other way;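 note: the enzyme is Sfp with the accession as filed and its product quenches rhodamine fluorescence; potency is the fitted concentration of half-maximal effect; 0% = enzyme reaction without inhibitor and -100% = no enzyme wells; top concentration of the series not given in the record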
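Fluorescence-quenching assay: 15 nM Sfp-PPTase preincubated 15 min at room temperature with compound, then 5 uM rhodamine-CoA and 12.5 uM BHQ-2-labelled YbbR peptide added. Fluorescence (ex 525/em 598 nm) read at start and after 30 min; difference gives rate.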
KDM4E inh – inhibitors of human JMJD2E histone demethylase. actives 1.6% (n = 230,000). JMJD2E catalytic domain, FDH-coupled NADH fluorescence (FDH is formaldehyde dehydrogenase). Potency, µM (doses to about 57.1 µM), inactives show at the highest dose activity change, negative = inhibition, most hits filed as inhibitors. B2RXH2; active = well fitted inhibition curve with a large enough effect, not every such curve was filed as active; inconclusive = small, poorly fitted or top-dose-only effect, or another doubt; inactive = no such curve, though single readings can be large or run the other way;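 note: potency is the fitted concentration of half-maximal effect; 0% = wells with enzyme and -100% = buffer wells without enzyme; nearly all actives have a fitted effect of over 50% in size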
ALDH1A1 inh – ALDH1A1 (human) enzyme inhibition. P00352. Purified ALDH1A1, NADH fluorescence, propionaldehyde substrate. Potency, µM (titrated, usually from 75.3 µM), inactives show top-dose activity, negative = inhibition, actives largely listed as inhibitors. actives 7.3% (n = 220,000). AID 1030; active = well fitted inhibition curve with a large enough effect, not every such curve was filed as active; inconclusive = small, poorly fitted or top-dose-only effect, or another doubt; inactive = no such curve, though single readings can be large or run the other way;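 note: potency is the fitted concentration of half-maximal effect; plate controls were no enzyme wells and a reference inhibitor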
miR-21 reporter – raises the signal of a miR-21 reporter | HeLa miR-21 FLuc reporter, luciferase, 48 h | Potency, µM (doses to about 38.3 µM), without a hit: at the top dose reporter change, positive = more light | 340,000 tested, under 10 active | AID 2288; active = well fitted rising curve with a large enough effect; inconclusive = small, poorly fitted or top-dose-only effect; inactive = no such curve, though single readings can be large or run the other way;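 note: % of control where 0% means no effect; miR-21 action dims this reporter so a rising signal means less miR-21 action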
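HeLa miR-21-FLuc reporter line, endogenous miR-21; 2000 cells/well in DMEM/10% FBS; compound titration up to ~40uM final, 48 h, 37 degree Celsius; luciferase detection reagent, 15 min lysis, CCD luminescence.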
An asterisk follows results filed as active; u = inconclusive; x = no result given; [ ] = remark or other dose. Rows were chosen to be rich in hits. Some 13% of all compounds tested hit in one or more screens of this group. Unless noted, calls come from the whole dose curve; as a rule, active = well fitted curve in the direction sought with a large enough effect; inconclusive = small, poorly fitted or top-dose-only effect, or another doubt; inactive = no such curve, though single readings can be large; an effect the other way counts as inactive or inconclusive.

Field names: A = Lamin A splicing; B = G9a inh; C = Sfp PPTase inh; D = KDM4E inh; E = ALDH1A1 inh; F = miR-21 reporter
> C=CCN(C(=O)c1ccc2snnc2c1)c1ccccc1
  A: x | B: 15% | C: 11% | D: x | E: x | F: -1%

> CCCCn1nc(C(=O)NNC(=O)c2ccncc2)c2ccccc2c1=O
  A: x | B: 78% | C: 7% | D: x | E: x | F: -23%

> COC(=O)[C@@H]1CC[C@H](C)[C@@H](c2ccc(C)cc2)N1C(=O)c1ccc(/C=N\O[C@@H](C)CN2CCCc3nc(C)c(C)cc32)cc1
  A: x | B: x | C: -19% | D: x | E: 10%[13.5 µM] | F: x

> CCOc1ccc(-c2csc(NC(=O)c3cccc(N4C(=O)CCC4=O)c3)n2)cc1
  A: x | B: 12% | C: 1% | D: 27% | E: x | F: -3%

> O=C(Nc1nnc(-c2ccc(Cl)cc2)o1)c1cccc(N2C(=O)CCC2=O)c1
  A: -13% | B: 60%[59 µM] | C: 19% | D: u | E: 4% | F: -13%

> O=C(Nc1nnc(-c2ccco2)o1)c1cccc(N2C(=O)CCC2=O)c1
  A: u | B: 16µM* | C: -54% | D: 2% | E: 28µM* | F: -7%

> Cc1ccc(-c2csc(NC(=O)c3cccc(N4C(=O)CCC4=O)c3)n2)o1
  A: -10% | B: 8.9µM* | C: 20µM* | D: -23% | E: 3.5µM* | F: 15%

> O=C(Nc1nnc(-c2ccncc2)o1)c1cccc(N2C(=O)CCC2=O)c1
  A: x | B: u | C: 56µM* | D: u | E: -6% | F: -1%

> Cc1ccc(F)c(C2C3C=CCC(C)C3C(=O)N2Cc2ccccc2)c1 (configuration not stated)
  A: x | B: x | C: -14% | D: x | E: x | F: x

> CCCCN(C)C(=O)c1nc2ccccn2c1CN1CCC[C@H]1CO
  A: x | B: 51% | C: 18% | D: x | E: x | F: 0%

> O=C(Nc1ccc(Br)cc1F)C1CCN(c2nc3ccccc3[nH]2)CC1
  A: u | B: 7%[59 µM] | C: x | D: x | E: x | F: 2%

> O=C1[C@H]2[C@H]3[C@H](O)[C@H](O)C/C(=N/OC[C@@H](O)COCc4ccco4)[C@@H]3CC[C@@H]2C(=O)N1Cc1ccccc1
  A: x | B: x | C: 17% | D: x | E: -9%[13.5 µM] | F: x

> COc1cc([C@@H]2Oc3cc([C@H]4Oc5cc(O)cc(O)c5C(=O)[C@H]4O)ccc3O[C@H]2CO)ccc1O
  A: x | B: x | C: -30% | D: 28µM* | E: u | F: x

> COc1cc([C@@H]2CC(=O)c3c(O)cc(O)cc3O2)ccc1O
  A: x | B: x | C: -14% | D: x | E: x | F: x

> COc1cc(OC)c2c(c1)OC(c1ccc(OC)c(OC)c1)C(O)C2=O (configuration not stated)
  A: -8% | B: -42%[59 µM] | C: 24% | D: -8% | E: u | F: -13%

> COc1cc([C@H]2Oc3cc([C@H]4Oc5cc(O)cc(O)c5C(=O)[C@@H]4O)ccc3O[C@@H]2CO)ccc1O
  A: u | B: 18%[12.7 µM] | C: 18% | D: x | E: 14µM* | F: -9%

> Clc1cccc(-n2ncc3c(NCCCn4ccnc4)ncnc32)c1
  A: -19%[46 µM] | B: -11%[59 µM] | C: x | D: x | E: x | F: -52%

> C=CCN(Cc1ccc(Cl)s1)C(=O)c1cc(S(=O)(=O)N2CCOCC2)ccc1F
  A: x | B: 7%[12.7 µM] | C: x | D: x | E: x | F: x

> Cc1ccc(S(=O)(=O)Cc2nc(-c3ccc(C(=O)NCc4ccccc4F)cc3)oc2C)cc1
  A: x | B: -48%[59 µM] | C: x | D: x | E: x | F: 0%

> CCC(NC(=S)NC1CCCCC1)c1ccccc1 (configuration not stated)
  A: x | B: 73% | C: 9% | D: x | E: x | F: 17%

> O=C(C1CCN(C2CCN(Cc3ccsc3)CC2)CC1)N1CCOCC1
  A: x | B: 24% | C: 5% | D: x | E: x | F: -5%

> N#CCCCSc1ncccc1-c1nc2ccccc2[nH]1
  A: 12% | B: 16µM* | C: 3% | D: u | E: u | F: -35%

> O=C(CSc1ncccc1-c1nc2ccccc2[nH]1)NCc1ccco1
  A: u | B: 10µM* | C: 40µM* | D: u | E: u | F: -11%

> Cc1cc2nc(-c3cccnc3SCC(=O)NCc3ccco3)[nH]c2cc1C
  A: u | B: 10µM* | C: 40µM* | D: u | E: u | F: -2%

> N#CCSc1ncccc1-c1nc2ccccc2[nH]1
  A: -9% | B: 9%[59 µM] | C: -12% | D: u | E: u | F: -32%

> Cc1ccc(S(=O)(=O)CC(=O)NCc2ccc(Cl)cc2)cc1
  A: x | B: 14%[59 µM] | C: x | D: x | E: x | F: x

> Cc1cc(C(=O)N2CCC(Cc3ccccc3)CC2)c(C)o1
  A: x | B: x | C: 7% | D: x | E: x | F: 0%

> CC(=O)c1c(C)[nH]c(C(=O)OCC(=O)c2ccc(C)s2)c1C
  A: x | B: -3%[2.33 µM] | C: x | D: x | E: x | F: x

> Oc1ccc2cc(SSc3ccc4cc(O)ccc4c3)ccc2c1
  A: x | B: x | C: x | D: x | E: -44% | F: x

> Oc1ccc2c(ccc3[nH]cnc32)c1
  A: u | B: 50µM* | C: 4% | D: 8% | E: 1% | F: -14%

> CCN=C1NN=C(c2c[nH]c3ccccc23)CS1
  A: x | B: x | C: u | D: -6% | E: -7% | F: -27%

> FC(F)Sc1ccc(N=C2NN=C(c3ccc4c(c3)OCCO4)CS2)cc1
  A: u | B: x | C: 0% | D: 0% | E: u | F: 26%

> COc1ccc(N=C2NN=C(c3ccc4c(c3)OCCO4)CS2)cc1
  A: -2% | B: 45µM* | C: u | D: -17% | E: 25µM* | F: -25%

> CCCCN=C1NN=C(c2ccc3c(c2)OCCO3)CS1
  A: 14%[9.22 µM] | B: 45µM* | C: 40µM* | D: u | E: 10µM* | F: -2%

> c1cc2c(cc1C1=NNC(=NC3CC3)SC1)OCCO2
  A: u | B: u | C: -6% | D: u | E: 10µM* | F: u

> CCCCN=C1NN=C(c2ccc(C)c(C)c2)CS1
  A: -18%[46 µM] | B: 32µM* | C: -25% | D: u | E: 20µM* | F: -37%

> COc1ccc(N/C=C(\C#N)S(=O)(=O)c2ccc(Cl)cc2)c(OC)c1
  A: x | B: -8% | C: 9% | D: x | E: x | F: -2%

> COc1ccccc1NC(=O)CCC(=O)N/N=C(/C)c1ccc(C)cc1
  A: -4% | B: 23%[59 µM] | C: 28% | D: 16% | E: 3% | F: -7%

> COCCN=C1NN=C(c2ccc(C)c([N+](=O)[O-])c2)CS1
  A: -6%[46 µM] | B: 10µM* | C: -26% | D: -2% | E: u | F: -66%

> COCC(C)N=C1NN=C(c2c[nH]c3ccccc23)CS1 (configuration not stated)
  A: u | B: -4%[59 µM] | C: u | D: 11% | E: 15% | F: -66%

> COCCn1c(=O)c(-c2ccccc2)nc2cnc(Oc3ccccc3)nc21
  A: x | B: -5%[12.7 µM] | C: -73% | D: x | E: u | F: x

> Cc1ccc(-c2noc(CCC(=O)Nc3ccc(F)cc3Cl)n2)cc1
  A: x | B: -10%[59 µM] | C: x | D: x | E: x | F: -1%

> CCCCOC(=O)Nc1ccc(N(C)C)cc1
  A: 12% | B: 1.6µM* | C: -17% | D: u | E: u | F: -44%

> CCCCOC(=O)Nc1ccc(N2CCOCC2)cc1
  A: 2% | B: 7.1µM* | C: 6% | D: 5% | E: -1% | F: -77%

> CCCCOC(=O)Nc1ccc(N2CCCCC2)cc1
  A: 7% | B: 7.9µM* | C: -26% | D: 1% | E: -1% | F: -38%

> CCNCC(=O)Nc1ccc(N2CCOCC2)cc1
  A: x | B: u | C: -2% | D: 6% | E: 11% | F: 5%

> CCCCOC(=O)Nc1ccc(C(N)=O)cc1
  A: -5% | B: 7%[59 µM] | C: 11% | D: -4% | E: 11% | F: -46%

> Cn1ccsc1=NC(=O)c1ccc(S(C)(=O)=O)cc1
  A: x | B: 18%[59 µM] | C: 12% | D: x | E: x | F: -42%

> O=c1ccc2cc(S(=O)(=O)N3CCN(c4ccccc4F)CC3)ccc2o1
  A: x | B: -12% | C: 7% | D: x | E: x | F: 0%

> O=c1[nH]c2ccc(S(=O)(=O)N3CCN(c4ccccc4F)CC3)cc2s1
  A: u | B: 14µM* | C: 6% | D: 8% | E: -4% | F: 3%

> Cc1cc(S(=O)(=O)N2CCN(c3ccc(F)cc3)CC2)ccc1-n1cnnn1
  A: x | B: 4% | C: 3% | D: x | E: x | F: 18%

Ordered by the number under miR-21 reporter (low to high): some entries from above.
Field names: A = Lamin A splicing; B = G9a inh; C = Sfp PPTase inh; D = KDM4E inh; E = ALDH1A1 inh; F = miR-21 reporter
> COCC(C)N=C1NN=C(c2c[nH]c3ccccc23)CS1 (configuration not stated)
  A: u | B: -4%[59 µM] | C: u | D: 11% | E: 15% | F: -66%

> CCCCN=C1NN=C(c2ccc(C)c(C)c2)CS1
  A: -18%[46 µM] | B: 32µM* | C: -25% | D: u | E: 20µM* | F: -37%

> CCNCC(=O)Nc1ccc(N2CCOCC2)cc1
  A: x | B: u | C: -2% | D: 6% | E: 11% | F: 5%
